The values below are quoted from earlier work in patent publication US8476466B2 (priority 2008, dated 2013).

This data set has as its system mice.
For the substance arsenious acid, the “50% lethal dose (LD50, in mice)” value is given as 4.5 mg/kg.
arsenocholine: the “50% lethal dose (LD50, in mice)” value was 6000 mg/kg.
As to trimethylarsine oxide, the “50% lethal dose (LD50, in mice)” value is on record as 10600 mg/kg.
